# Test results reported in publication PMC11470957, “Principles of paralog-specific targeted protein degradation engaging the C-degron E3 KLHDC2” (Nature Communications, 2024).
# Chains of the proteins cited; added tags and fusions are not shown. Residues count along the entry.
# UniProt Q15059, 306-416: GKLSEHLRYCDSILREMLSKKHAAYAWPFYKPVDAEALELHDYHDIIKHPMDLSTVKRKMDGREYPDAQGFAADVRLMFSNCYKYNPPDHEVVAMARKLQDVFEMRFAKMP
# UniProt Q15059, whole entry: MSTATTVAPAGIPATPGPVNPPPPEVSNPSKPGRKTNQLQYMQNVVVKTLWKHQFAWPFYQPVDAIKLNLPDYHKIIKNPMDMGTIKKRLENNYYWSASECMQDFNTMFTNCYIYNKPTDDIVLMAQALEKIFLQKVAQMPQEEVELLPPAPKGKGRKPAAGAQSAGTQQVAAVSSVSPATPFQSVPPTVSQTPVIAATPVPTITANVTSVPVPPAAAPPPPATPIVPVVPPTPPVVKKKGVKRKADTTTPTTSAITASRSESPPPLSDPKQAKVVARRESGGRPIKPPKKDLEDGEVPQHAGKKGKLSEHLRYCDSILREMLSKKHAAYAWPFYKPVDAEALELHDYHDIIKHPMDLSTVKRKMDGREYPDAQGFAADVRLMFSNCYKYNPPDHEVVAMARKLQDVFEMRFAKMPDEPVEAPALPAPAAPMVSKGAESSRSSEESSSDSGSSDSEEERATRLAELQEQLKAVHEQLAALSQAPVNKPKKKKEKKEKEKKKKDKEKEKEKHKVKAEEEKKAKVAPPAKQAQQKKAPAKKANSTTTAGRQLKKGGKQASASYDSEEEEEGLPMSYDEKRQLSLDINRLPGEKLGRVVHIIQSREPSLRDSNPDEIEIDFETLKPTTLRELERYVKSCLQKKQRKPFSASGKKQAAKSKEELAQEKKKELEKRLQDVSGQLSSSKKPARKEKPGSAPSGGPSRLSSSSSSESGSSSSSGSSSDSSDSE
# UniProt P25440, whole entry: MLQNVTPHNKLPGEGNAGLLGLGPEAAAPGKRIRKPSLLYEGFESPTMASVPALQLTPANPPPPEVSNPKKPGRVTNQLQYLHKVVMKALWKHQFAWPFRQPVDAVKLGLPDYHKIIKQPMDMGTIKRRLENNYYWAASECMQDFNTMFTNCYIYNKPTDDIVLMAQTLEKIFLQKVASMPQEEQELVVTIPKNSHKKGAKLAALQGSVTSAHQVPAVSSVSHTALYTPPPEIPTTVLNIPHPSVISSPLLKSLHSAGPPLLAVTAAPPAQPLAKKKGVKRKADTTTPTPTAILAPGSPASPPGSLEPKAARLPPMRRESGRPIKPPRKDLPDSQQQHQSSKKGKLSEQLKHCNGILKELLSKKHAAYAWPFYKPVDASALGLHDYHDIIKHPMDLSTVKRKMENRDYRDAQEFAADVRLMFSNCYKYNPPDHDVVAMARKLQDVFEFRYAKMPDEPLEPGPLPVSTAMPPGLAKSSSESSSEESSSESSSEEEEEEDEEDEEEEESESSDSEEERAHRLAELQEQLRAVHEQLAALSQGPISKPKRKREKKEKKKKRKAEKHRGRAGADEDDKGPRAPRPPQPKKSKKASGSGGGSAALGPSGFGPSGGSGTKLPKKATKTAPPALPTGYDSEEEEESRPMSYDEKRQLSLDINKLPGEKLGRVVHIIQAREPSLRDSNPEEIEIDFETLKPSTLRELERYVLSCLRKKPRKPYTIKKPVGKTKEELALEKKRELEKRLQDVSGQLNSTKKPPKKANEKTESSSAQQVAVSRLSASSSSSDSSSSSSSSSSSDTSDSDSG
# UniProt P25440, 344-455: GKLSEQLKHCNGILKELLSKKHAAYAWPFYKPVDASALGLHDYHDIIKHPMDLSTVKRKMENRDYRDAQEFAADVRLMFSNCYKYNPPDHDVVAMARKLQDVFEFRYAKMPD
# UniProt P25440, 344-455 G382E: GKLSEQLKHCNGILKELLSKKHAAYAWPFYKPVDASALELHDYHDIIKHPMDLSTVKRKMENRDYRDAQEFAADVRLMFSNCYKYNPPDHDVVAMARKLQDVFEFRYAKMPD
# Values joined by “and” are separate entries in the source; they are usually repeats but may differ in a detail not shown here. Equal entries are not always repeated. Where two headings read alike, the source gives them in different places.
# What was measured:
# [1] = target: T1, neddylated CRL2^KLHDC2 / BRD3^BD2 (Homo sapiens, UniProt Q15059+Q9Y2U9, Q9Y2U9:G405K/Q9Y2U9:S406K); test: biochemical
# [2] = target: T1, neddylated CRL2^KLHDC2 / BRD3^BD2
# [3] = target: neddylated CRL2^KLHDC2 (Homo sapiens, UniProt Q9Y2U9, G405K/S406K); conditions: Fig4c source
# [4] = target: BRD4 (Homo sapiens, UniProt O60885); test: Western blot of BRD4 levels after cellular dosing; conditions: 24 h
# [5] = target: BRD2 (Homo sapiens, UniProt P25440); test: Western blot of BRD2 levels after cellular dosing; conditions: 24 h
# [6] = target: BRD2^BD2 (Homo sapiens, UniProt P25440); test: ITC, binary binding to BRD2^BD2; conditions: ITC source data Fig4a; syringe BRD2BD2, cell SJ46421
# [7] = target: neddylated CRL2^KLHDC2 (tetrameric KLHDC2-EloB/C) (Homo sapiens, UniProt Q15059+Q9Y2U9); test: Ubiquitylation assay monitoring disruption of the KLHDC2-EloBC tetrameric assembly
# [8] = target: T2, KLHDC2 (Homo sapiens, UniProt Q9Y2U9); test: Western blot of KLHDC2 levels after cellular dosing; conditions: 24 h
# T2 sequence (Q9Y2U9 1-406): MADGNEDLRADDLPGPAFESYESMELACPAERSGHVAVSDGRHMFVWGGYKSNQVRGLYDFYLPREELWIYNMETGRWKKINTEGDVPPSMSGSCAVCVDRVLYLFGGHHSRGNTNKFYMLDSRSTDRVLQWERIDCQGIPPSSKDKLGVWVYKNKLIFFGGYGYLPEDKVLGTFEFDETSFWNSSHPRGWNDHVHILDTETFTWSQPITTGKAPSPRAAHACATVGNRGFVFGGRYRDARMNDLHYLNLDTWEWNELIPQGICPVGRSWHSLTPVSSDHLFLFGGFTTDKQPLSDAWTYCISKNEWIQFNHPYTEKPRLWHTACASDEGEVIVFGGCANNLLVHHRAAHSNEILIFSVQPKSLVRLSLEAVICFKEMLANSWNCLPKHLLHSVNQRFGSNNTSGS
# [9] = target: KLHDC2^SBD / BRD2^BD2 (Homo sapiens, UniProt P25440+Q9Y2U9); test: ITC, ternary complex KLHDC2^SBD with PROTAC-BRD2^BD2
# [10] = target: KLHDC2^SBD / G382E BRD2^BD2 (Homo sapiens, UniProt P25440+Q9Y2U9, G382E); test: ITC, ternary complex KLHDC2^SBD with PROTAC-G382E BRD2^BD2; conditions: ITC source data Fig4f; syringe KLHDC2, cell SJ46421-G382EBRD2BD2
# [11] = target: BRD3^BD2 (Homo sapiens, UniProt Q15059); test: ITC, binary binding to BRD3^BD2; conditions: ITC source data Fig4a; syringe BRD3BD2, cell SJ46421
# [12] = tested on: CUL2^KLHDC2, CUL2^KLHDC3, CUL2^KLHDC10, CUL5^KLHDC1; test: SJ46421-dependent BRD^BD2 ubiquitylation by KLHDC-family CRLs (E3 selectivity); conditions: neo-substrate ubiquitylation
# [13] = tested on: KLHDC2, KLHDC3, KLHDC10, KLHDC1 E3 ligases
# [14] = target: BRD3 (Homo sapiens, UniProt Q15059); test: Western blot of BRD3 levels after cellular dosing; conditions: 24 h
# [15] = Fig3g source, 1:1 PROTAC:BRD3^BD2 0.0625 uM
# [16] = Fig3g source, 1:1 PROTAC:BRD3^BD2 0.125 uM
# [17] = Fig3g source, 1:1 PROTAC:BRD3^BD2 0.25 uM
# [18] = Fig3g source, 1:1 PROTAC:BRD3^BD2 0.5 uM
# [19] = Fig3g source, 1:1 PROTAC:BRD3^BD2 1 uM
# [20] = Fig4c source, PROTAC-BRD3BD2 0.005 uM
# [21] = Fig4c source, PROTAC-BRD3BD2 0.01 uM
# [22] = Fig4c source, PROTAC-BRD3BD2 0.04 uM
# [23] = Fig4c source, PROTAC-BRD3BD2 0.37 uM
# [24] = Fig4c source, PROTAC-BRD3BD2 1.1 uM
# [25] = Fig4c source, PROTAC-BRD3BD2 3.3 uM
# [26] = Fig4c source, PROTAC-BRD3BD2 10 uM
# [27] = U2OS DC2KO (KLHDC2 knockout), 5µM, Fig 6b
smiles,measurement,setting,value
Cc1sc2c(c1C)C(c1ccc(Cl)cc1)=N[C@@H](CC(=O)N1CCN(CCOc3ccc4ccc(-c5nc(CC(=O)NCC(=O)O)cs5)cc4c3)CC1)c1nnc(C)n1-2 [SJ46423],Ki,[1],610 nM
same,"diGly substrate ubiquitylation remaining (0 uM = 100), Rep1/Rep2",[2]; [15],88.9579 and 87.2342
same,"diGly substrate ubiquitylation remaining (0 uM = 100), Rep1/Rep2",[2]; [16],83.5543 and 79.7327
same,"diGly substrate ubiquitylation remaining (0 uM = 100), Rep1/Rep2",[2]; [17],77.3497 and 75.2985
same,"diGly substrate ubiquitylation remaining (0 uM = 100), Rep1/Rep2",[2]; [18],70.6159 and 68.2842
same,"diGly substrate ubiquitylation remaining (0 uM = 100), Rep1/Rep2",[2]; [19],59.8368 and 55.2835
same,"diGly substrate ubiquitylation remaining (0 uM = 100), Rep1/Rep2","[2]; Fig3g source, 1:1 PROTAC:BRD3^BD2 2 uM",48.1841 and 49.2421
same,"diGly substrate ubiquitylation remaining (0 uM = 100), Rep1/Rep2",[2]; [20],103.037 and 109.197
same,"diGly substrate ubiquitylation remaining (0 uM = 100), Rep1/Rep2",[2]; [21],100.025 and 100.853
same,"diGly substrate ubiquitylation remaining (0 uM = 100), Rep1/Rep2",[2]; [22],82.1957 and 85.1933
same,"diGly substrate ubiquitylation remaining (0 uM = 100), Rep1/Rep2",[2]; [23],68.9683 and 76.8326
same,"diGly substrate ubiquitylation remaining (0 uM = 100), Rep1/Rep2",[2]; [24],37.6292 and 52.498
same,"diGly substrate ubiquitylation remaining (0 uM = 100), Rep1/Rep2",[2]; [25],16.5064 and 26.7706
same,"diGly substrate ubiquitylation remaining (0 uM = 100), Rep1/Rep2",[2]; [26],8.538 and 13.7087
same,"enhancement of the IC50, ternary complex vs ligand alone",[2]; with BRD3^BD2 vs alone,~ 7 fold
same,"diGly substrate ubiquitylation remaining (0 uM = 100), Rep1/Rep2",[3]; PROTAC alone 0.005 uM,102.475 and 100
same,"diGly substrate ubiquitylation remaining (0 uM = 100), Rep1/Rep2",[3]; PROTAC alone 0.01 uM,102.64 and 108.67
same,"diGly substrate ubiquitylation remaining (0 uM = 100), Rep1/Rep2",[3]; PROTAC alone 0.04 uM,101.626 and 95.1143
same,"diGly substrate ubiquitylation remaining (0 uM = 100), Rep1/Rep2",[3]; PROTAC alone 0.37 uM,102.536 and 100.616
same,"diGly substrate ubiquitylation remaining (0 uM = 100), Rep1/Rep2",[3]; PROTAC alone 1.1 uM,84.0203 and 84.5553
same,"diGly substrate ubiquitylation remaining (0 uM = 100), Rep1/Rep2",[3]; PROTAC alone 3.3 uM,76.072 and 79.4906
same,"diGly substrate ubiquitylation remaining (0 uM = 100), Rep1/Rep2",[3]; PROTAC alone 10 uM,43.3492 and 46.6583
Cc1sc2c(c1C)C(c1ccc(Cl)cc1)=N[C@@H](CC(=O)N1CCN(CCOc3cccc4ccc(-c5nc(CC(=O)NCC(=O)O)cs5)cc34)CC1)c1nnc(C)n1-2 [SJ46421],BRD4 level relative to DMSO (100%),"[4]; 293T, 2.5µM, Fig S6a",102 +/- 5.9%
same,BRD4 level relative to DMSO (100%),"[4]; 293T, 5µM, Fig S6a",92 +/- 9.1%
same,BRD4 level relative to DMSO (100%),"[4]; MDA-MB-468, 10µM, Fig S6b",96 +/- 3.5%
same,BRD4 level relative to DMSO (100%),[4]; [27],101 +/- 17%
same,BRD4 level relative to DMSO (100%),"[4]; U2OS, 5µM, Fig 6b",111 +/- 11%
same,BRD2 level relative to DMSO (100%),"[5]; 293T, 2.5µM, Fig S6a",80 +/- 11%
same,BRD2 level relative to DMSO (100%),"[5]; 293T, 5µM, Fig S6a",80 +/- 6.7%
same,BRD2 level relative to DMSO (100%),"[5]; MDA-MB-468, 10µM, Fig S6b",72 +/- 14%
same,BRD2 level relative to DMSO (100%),[5]; [27],107 +/- 7.3%
same,BRD2 level relative to DMSO (100%),"[5]; U2OS, 5µM, Fig 6b",127 +/- 13%
same,"(-)TDS, Rep1/Rep2",[6],2.71 and 2.54
same,Ki,[1],7.84 nM
same,"BRD3~UB level, Rep1/Rep2","[7]; Monomer, + BRD3-SJ46421, pre-incubation 0",100
same,"BRD3~UB level, Rep1/Rep2","[7]; Tetramer, + BRD3-SJ46421, pre-incubation 0",55.3818 and 61.132
same,"BRD3~UB level, Rep1/Rep2","[7]; Tetramer, + BRD3-SJ46421, pre-incubation 2",98.4918 and 103.234
same,"BRD3~UB level, Rep1/Rep2","[7]; Tetramer, + BRD3-SJ46421, pre-incubation 5",99.3472 and 103.232
same,shift of ubiquitin targeting from KLHDC2 to BRD3^BD2,[7]; pre-incubation with SJ46421-BRD3^BD2 for as little as two minutes,complete switch in ubiquitin targeting to BRD3^BD2
same,"diGly substrate ubiquitylation remaining (0 uM = 100), Rep1/Rep2",[2]; [15],31.1086 and 36.9335
same,"diGly substrate ubiquitylation remaining (0 uM = 100), Rep1/Rep2",[2]; [16],12.577 and 12.207
same,"diGly substrate ubiquitylation remaining (0 uM = 100), Rep1/Rep2",[2]; [17],5.502 and 5.266
same,"diGly substrate ubiquitylation remaining (0 uM = 100), Rep1/Rep2",[2]; [18],4.738 and 3.146
same,"diGly substrate ubiquitylation remaining (0 uM = 100), Rep1/Rep2",[2]; [19],4.176 and 3.599
same,"diGly substrate ubiquitylation remaining (0 uM = 100), Rep1/Rep2",[2]; [20],81.2598 and 77.4379
same,"diGly substrate ubiquitylation remaining (0 uM = 100), Rep1/Rep2",[2]; [21],35.6946 and 31.5513
same,"diGly substrate ubiquitylation remaining (0 uM = 100), Rep1/Rep2",[2]; [22],4.4 and 4.403
same,"diGly substrate ubiquitylation remaining (0 uM = 100), Rep1/Rep2",[2]; [23],2.657 and 1.959
same,"diGly substrate ubiquitylation remaining (0 uM = 100), Rep1/Rep2",[2]; [24],1.575 and 1.863
same,"diGly substrate ubiquitylation remaining (0 uM = 100), Rep1/Rep2",[2]; [25],1.575 and 3.083
same,"diGly substrate ubiquitylation remaining (0 uM = 100), Rep1/Rep2",[2]; [26],2.138 and 1.673
same,KLHDC2 level relative to DMSO (100%),"[8]; 293T, 2.5µM, Fig S6a",105 +/- 5.2%
same,KLHDC2 level relative to DMSO (100%),"[8]; 293T, 5µM, Fig S6a",107 +/- 6.8%
same,KLHDC2 level relative to DMSO (100%),"[8]; MDA-MB-468, 10µM, Fig S6b",124 +/- 6.7%
same,KLHDC2 level relative to DMSO (100%),[8]; [27],0 +/- 0%
same,cooperativity α = Kd(Binary)/Kd(Ternary),[9],1.4
same,"(-)TDS, Rep1/Rep2",[10],0.62 and 0.68
same,"(-)TDS, Rep1/Rep2",[11],5.34 and 5
same,selectivity for KLHDC2 over other KLHDC-family CRLs,[12],greater than two orders-of-magnitude
same,"diGly substrate ubiquitylation remaining (0 uM = 100), Rep1/Rep2",[3]; PROTAC alone 0.005 uM,101.067 and 100
same,"diGly substrate ubiquitylation remaining (0 uM = 100), Rep1/Rep2",[3]; PROTAC alone 0.01 uM,100.794 and 94.7859
same,"diGly substrate ubiquitylation remaining (0 uM = 100), Rep1/Rep2",[3]; PROTAC alone 0.04 uM,85.5112 and 80.6034
same,"diGly substrate ubiquitylation remaining (0 uM = 100), Rep1/Rep2",[3]; PROTAC alone 0.37 uM,80.1665 and 69.9122
same,"diGly substrate ubiquitylation remaining (0 uM = 100), Rep1/Rep2",[3]; PROTAC alone 1.1 uM,63.0506 and 54.9804
same,"diGly substrate ubiquitylation remaining (0 uM = 100), Rep1/Rep2",[3]; PROTAC alone 3.3 uM,24.4113 and 17.9182
same,"diGly substrate ubiquitylation remaining (0 uM = 100), Rep1/Rep2",[3]; PROTAC alone 10 uM,16.8304 and 9.612
same,selectivity toward KLHDC2 over KLHDC10,[13],~ 40 fold
same,BRD3 level relative to DMSO (100%),"[14]; 293T, 2.5µM, Fig S6a",82 +/- 5.3%
same,BRD3 level relative to DMSO (100%),"[14]; 293T, 5µM, Fig S6a",78 +/- 7.4%
same,BRD3 level relative to DMSO (100%),"[14]; MDA-MB-468, 10µM, Fig S6b",71 +/- 15%
same,BRD3 level relative to DMSO (100%),[14]; [27],103 +/- 5.6%
